Earlier results in paper PMC8739840, “Structural and Molecular Insight into Piperazine and Piperidine Derivatives as Histamine H3 and Sigma-1 Receptor Antagonists with Promising Antinociceptive Properties” (ACS Chemical Neuroscience, 2021).

Biological target: H3R
Conditions: pitolisant; read-out: hH3R Ki; cited from earlier work

For Clc1ccc(CCCOCCCN2CCCCC2)cc1 [PIT, Pitolisant], the pKi is given as 8.62 to 9.00.

pKi: −log10 of the molar value.
